This is an account of results in PubChem BioAssay (Tox21).

A short description of experiment [1]: Nuclear factor erythroid 2-related factor 2/antioxidant responsive element (Nrf2/ARE) small molecule agonists: luciferase reporter gene qHTS assay in human keratinocytes (AID 1919969). Also: nearly all actives have a fitted effect of over 35% in size. Also: potency is read from the fitted curve at half-maximal effect. Background: In a reporter assay the amount or activity of a reporter protein is the signal.
The nature of experiment [2]: p53 small molecule agonists, cell-based qHTS assay with rat liver microsomes (AID 1963578). The settings on record: HCT-116 p53RE-bla, beta-lactamase ratio, 16 h. The gist of the method: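 Rat liver microsome activation: microsomes 0.5 mg/mL, NADPH 0.5 mg/mL final; p53RE-bla cells, 16 h 37 C; LiveBLAzer readout, 2 h RT dark.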
(In qHTS, concentration-response curves come from the screen itself.)

Experiment [3] can be described thus: p53 small molecule agonists, cell-based qHTS assay (AID 1963582; active = well fitted activation curve with a large enough effect in the signal ratio in the repeat runs, not every such curve was filed as active; the % refers to the signal ratio). As to conditions: HCT-116 p53RE-bla reporter, beta-lactamase FRET ratio, 16 h. The gist of the method: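 After plating, p53RE-bla cells sat 5 h in the incubator; compounds or DMSO vehicle were pinned in; a 16 h incubation at 37 C followed; FRET substrate was added and, 2 h later at RT, fluorescence was measured.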

The nature of experiment [4]: cAMP Responsive Elements (CRE) small molecule antagonists, cell-based qHTS assay (AID 1963591; active = well fitted inhibition curve with a large enough effect in the signal ratio in the repeat runs, not every such curve was filed as active; the % refers to the signal ratio). As to conditions: CRE-bla HEK293T, beta-lactamase FRET ratio; at 92.4 µM (top of the series) unless noted. The gist of the method:
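Stimulation used NKH477 at a final 0.25 uM for 3 h in compound-treated CRE-bla HEK293T cells, seeded 18 h beforehand. Reporter activity was measured with LiveBLAzer B/G FRET substrate after 2 h at room temperature.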

[5] abbreviates: at 66 µM (top of the series) unless noted.

“And” between values parts separate entries of the source, which are not always exact repeats. Identical values can stand only once. Only a part is listed here, and it is no random draw. Results filed as inconclusive are left out. The source made the active and inactive calls. Unless noted, calls follow the shape of the full dose curve.
% is scaled to controls: 0 for no effect and ±100 for the full control effect.

For `CCCCCCCCCCCCCC[P+](CCCCCC)(CCCCCC)CCCCCC`, the Potency result in experiment [1] is “inactive”. In addition, the activation in experiment [2] (setting [5]) was inactive: 1.2%.
Turning to `CCOP(=S)(CC)Sc1ccccc1` (stereo unspecified), the Potency entry in experiment [1] is “inactive”. Also, the activation in experiment [3] (at 66 µM (top of the series)) was inactive: -0.165%. In experiment [4], the activity change, negative = inhibition was inactive: -10.9%.
`CN(C(=O)Cc1ccccc1)[C@H]1CC[C@@]2(CCCO2)C[C@@H]1N1CCCC1`: the Potency result in experiment [1] is “inactive”. For the same molecule, the activation in experiment [2] (setting [5]) was inactive: -0.126% [at 30.3 µM]; in experiment [3] (at 30.3 µM (top of the series)) it was inactive: -3.22%.
`CC(C)CCCCCCCOP(OCCCCCCCC(C)C)Oc1ccccc1`: the Potency result in experiment [1] is “inactive”. The activation in experiment [3] (at 66 µM (top of the series)) was inactive: -3.36%. Further, the activity change, negative = inhibition in experiment [4] is inactive: -16%.
As to `CCCCOP(OCCCC)OCCCC`, in experiment [1], the Potency entry was “inactive”. Besides, the activation in experiment [2] (setting [5]) is inactive: 2.2%; in experiment [3] (at 66 µM (top of the series)), inactive: -0.106%. The activity change, negative = inhibition in experiment [4] is inactive: -0.884%.
As to `O=[As]c1ccccc1` (stereo unspecified), the Potency in experiment [1] is active: 486 nM.
For `O=[N+]([O-])c1ccc(S(=O)(=O)O)c([N+](=O)[O-])c1`, in experiment [4], the activity change, negative = inhibition was inactive: 2.49%.
Still for that read-out and setting: to `CC(C)OP(=S)(OC(C)C)SCCNS(=O)(=O)c1ccccc1` belongs inactive: -15.6%.
In the case of `CN(C(=O)Cc1ccc(Cl)c(Cl)c1)[C@H]1CC[C@@]2(CCCO2)C[C@@H]1N1CCCC1`, the Potency result in experiment [1] was “inactive”. The activation in experiment [2] (setting [5]) is inactive: -1.59% [at 30.3 µM]; in experiment [3] (at 30.3 µM (top of the series)), inactive: -0.542%. In addition, the activity change, negative = inhibition in experiment [4] was inactive: -3.32% [at 42.4 µM].
In the case of `CCNC(C)Cc1ccc2c(c1)OCO2` (stereo unspecified), the Potency entry in experiment [1] is “inactive”. The activation in experiment [2] (setting [5]) was inactive: 4.66%; in experiment [3] (at 66 µM (top of the series)), inactive: 3.46%. For the same molecule, the activity change, negative = inhibition in experiment [4] was inactive: 1.06%.
The like results for `O=P(Cl)(Oc1ccccc1)Oc1ccccc1` were, in that order, “inactive”, inactive: 3.18%, inactive: 0.0921% and inactive: -1.05%.
Take `O=[N+]([O-])c1ccc([N+](=O)[O-])cc1`: the figures for the activation in experiment [2] (setting [5]) and in experiment [3] (at 66 µM (top of the series)) were inactive: -1.25% and inactive: -0.689%, respectively. In experiment [4], the activity change, negative = inhibition was inactive: -0.668%.
For `O=[P+](Oc1ccccc1)Oc1ccccc1`, the activation in experiment [2] (setting [5]) was inactive: -1.98%. For the same molecule, in experiment [4], the activity change, negative = inhibition is inactive: -0.406%.
In the case of `CCC(C)(OOC(C)(C)C)OOC(C)(C)C`, the activity, positive = activation in experiment [1] was inactive: 6.3% [at 19 µM]. The activation is inactive: 0.519% [at 13.6 µM] in experiment [2] (setting [5]) and inactive: 1.63% in experiment [3] (at 13.5 µM (top of the series)). In addition, in experiment [4], the activity change, negative = inhibition was inactive: -5.66% [at 18.9 µM].
For `CCCCC(CC)CO[P+](=O)OCC(CC)CCCC` (stereo unspecified), the Potency result in experiment [1] is “inactive”. The activation in experiment [2] (setting [5]) is inactive: 0.42%; in experiment [3] (at 66 µM (top of the series)), inactive: -3.05%. In addition, the activity change, negative = inhibition in experiment [4] was inactive: 2.99%.
In the case of `COP(=S)(Cl)OC`, the Potency entry in experiment [1] was “inactive”. The results for the activation in experiment [2] (setting [5]) and in experiment [3] (at 66 µM (top of the series)) were inactive: -1.03% and inactive: -6.1%, respectively. In addition, in experiment [4], the activity change, negative = inhibition is inactive: -8.65%.
Take `ClP(Cl)c1ccccc1`: in experiment [1], the Potency entry is “inactive”. For the same molecule, the results for the activation in experiment [2] (setting [5]) and in experiment [3] (at 66 µM (top of the series)) were inactive: 0.574% and inactive: -2.21%, respectively.
For `Cc1cc([N+](=O)[O-])cc([N+](=O)[O-])c1O`, the activation in experiment [2] (setting [5]) was inactive: -1.73%.
In the case of `CCCCO[P+](=O)OCCCC`, the Potency entry in experiment [1] is “inactive”. For the same molecule, the activation in experiment [2] (setting [5]) is inactive: -1.45% and inactive: -0.939%; in experiment [3] (at 66 µM (top of the series)) it was inactive: -3.17% and inactive: -1.48%. Besides, in experiment [4], the activity change, negative = inhibition was inactive: 5.72% and inactive: 1.52%.
As for `COC(=O)Cl`, the Potency entry in experiment [1] was “inactive”. Moreover, the activation is inactive: 1.03% in experiment [2] (setting [5]) and inactive: 0.558% in experiment [3] (at 66 µM (top of the series)). Further, in experiment [4], the activity change, negative = inhibition was inactive: 1.32%.
With `Cc1cc([N+](=O)[O-])c(O)c([N+](=O)[O-])c1`, the Potency result in experiment [1] was “inactive”. Besides, the activation in experiment [2] (setting [5]) is inactive: 0.223%.
Consider `O=C(Cl)Oc1ccccc1`, for which the Potency entry in experiment [1] is “inactive”. The activation is inactive: -2.18% in experiment [2] (setting [5]) and inactive: -6.22% in experiment [3] (at 66 µM (top of the series)). Also, the activity change, negative = inhibition in experiment [4] is inactive: -1.7%.
On to `CN(N=O)C(=N)N[N+](=O)[O-]`, for which the activation in experiment [2] (setting [5]) was inactive: 24.2%. In addition, the activity change, negative = inhibition in experiment [4] was inactive: -3.44%.
Take `CN(C(=O)Cc1cccc2occc12)[C@H]1CC[C@@]2(CCCO2)C[C@@H]1N1CCCC1`: the Potency result in experiment [1] was “inactive”. Besides, the figures for the activation in experiment [2] (setting [5]) and in experiment [3] (at 66 µM (top of the series)) were inactive: -2.17% and inactive: -0.229%, respectively. The activity change, negative = inhibition in experiment [4] was inactive: -0.558%.
`O=C(Cl)OCCOC(=O)Cl`: the activation is inactive: 1.03% in experiment [2] (setting [5]) and inactive: -0.32% in experiment [3] (at 66 µM (top of the series)).
On to `CCOC(=O)Cl`, for which, in experiment [1], the Potency entry is “inactive”. For the same molecule, the activity change, negative = inhibition in experiment [4] was inactive: 1.42%.
The like results for `O=[p+]1oc2ccccc2c2ccccc21` (stereo unspecified) were, in that order, “inactive” and inactive: -0.84%.
As to `O=P(Cl)(Cl)c1ccccc1`, the Potency result in experiment [1] is “inactive”. In addition, the activation in experiment [2] (setting [5]) is inactive: 0.322%; in experiment [3] (at 66 µM (top of the series)) it was inactive: 0.487%. The activity change, negative = inhibition in experiment [4] was inactive: -0.101%.
On to `O=C1C2CC=CCC2C(=O)N1SC(Cl)(Cl)C(Cl)Cl` (stereo unspecified), for which, in experiment [2] (setting [5]), the activation is inactive: 6.65% and inactive: -4.39%.
Turning to `NC(=O)Nc1ccc([As](=O)(O)O)cc1`, the activation was inactive: 3.09% in experiment [2] (at 30.3 µM (top of the series)), inactive: 4.36% in experiment [2] (at 66 µM (top of the series)), inactive: 1.22% in experiment [3] (at 30.3 µM (top of the series)) and inactive: -2.99% in experiment [3] (at 66 µM (top of the series)).
